This assay concerns the target T1, Sm5HTR (Schistosoma mansoni, UniProt G4V5G4).
T1 construct: gene 5HT-1; full length, 463 residues, 52 kDa; pCI-neo; transiently transfected HEK 293 cells
T1 sequence (G4V5G4 1-463): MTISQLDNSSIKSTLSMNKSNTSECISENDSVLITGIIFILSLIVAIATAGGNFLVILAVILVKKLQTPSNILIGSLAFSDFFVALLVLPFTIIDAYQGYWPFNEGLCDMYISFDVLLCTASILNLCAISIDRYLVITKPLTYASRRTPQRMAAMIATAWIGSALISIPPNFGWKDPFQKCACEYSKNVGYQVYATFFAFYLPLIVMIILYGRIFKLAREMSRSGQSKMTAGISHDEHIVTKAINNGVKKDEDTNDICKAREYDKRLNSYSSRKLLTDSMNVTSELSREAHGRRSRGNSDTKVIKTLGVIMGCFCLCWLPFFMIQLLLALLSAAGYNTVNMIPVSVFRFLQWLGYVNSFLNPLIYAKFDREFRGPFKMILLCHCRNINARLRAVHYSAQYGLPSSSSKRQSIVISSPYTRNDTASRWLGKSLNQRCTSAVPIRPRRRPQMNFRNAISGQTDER
The experiment in a line: cAMP fluorescent competitive immunoassay, transfected HEK […] cells. It is filed as cell-based.

On to `NCCc1c[nH]c2ccc(O)cc12` [5HT, serotonin], for which the EC50 worked out at 61.7 nM.
